# Data published in PubChem BioAssay AID1347041 (National Center for Advancing Translational Sciences (NCATS), 2019).
# The entries are a selection whose mix differs from that of the whole data set. Calls of active or inactive are those of the source. Cut-off read from the data, not from the text of the source: active = activity change below about -30%; inconclusive = mostly about -25% to -30%; inactive = weaker than that.
# Target: L-lactate dehydrogenase A chain (Homo sapiens) (UniProt P00338)
# Test: qHTS assay for inhibitors of human lactate dehydrogenase;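 note: values are at about 110 or 230 µM; plate controls were DMSO wells for no effect and wells without enzyme for full effect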
# Conditions: purified LDHA, NADH/diaphorase-resazurin fluorescence; stronger effect = lower value
# Description: LDH is a key glycolytic enzyme that catalyzes the final step in the glycolytic pathway, reducing pyruvate to lactate and regenerating NAD+ equivalents necessary for continued glycolysis. LDHA has been linked to the carcinogenesis and malignancy in numerous forms of cancers and many other diseases. Consequently, both pharma and academia have invested in significant research efforts to identify small molecule therapeutics. Such attempts have been stalled or abandoned due to limited success in discovering potent and drug-like inhibitors that can be utilized to validate LDHA in vivo as a drug target, a necessary step toward advancing such a molecule towards the clinic Towards this goal we designed and performed a quantitative high-throughput screening (qHTS) campaign to discover novel compounds that are potent inhibitors of LDHA enzyme activity and cancer cell line growth.
# The assay was optimized to 1536-well plates. […] Plates were immediately transferred to a ViewLux microplate imager (PerkinElmer, Waltham, MA), and any resulting resorufin fluorescence was measured (ex540, em590 nm) at 0 and 20 minutes. Fluorescence was normalized using enzyme-free and DMSO-treated control wells on each plate.
row,SMILES,activity change
1,CCC(=O)N(c1ccccc1)C1(COC)CCN(CCn2nnn(CC)c2=O)CC1,inactive: -10.3%
2,CCC(=O)N(c1ccccc1)C1(COC)CCN(CCc2cccs2)CC1,inactive: -4.62%
